According to patent US20220226434A1:

Target: UNC5B receptor on mouse bone marrow monocytes (mouse) (UniProt Q8K1S3)
Assay: cell-based or functional assay

inhibition of monocyte adhesion (monocyte-EC adhesion assay, calcein AM): 23%
Substance: Mouse recombinant netrin-1 (from UniProt O09118 25-604) (ligand)
